From PubChem BioAssay AID1296 (Columbia University Molecular Screening Center, 2008)
This is a selection; strong and weak results do not stand in their true shares. Activity calls are given as the source filed them.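 Rule for the calls: active = activation at 2 µM above a set limit, confirmed on inspection of the cell images; inconclusive = above the set limit but not confirmed on image inspection; inactive = the rest.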

experiment: insulin gene promoter stimulation in islet cells – imaging, TRM-6 cells, eGFP reporter, cell count, primary screen (AID 1296); conditions: at 2 µM, hits give high values, plate-scaled: unstimulated 0, stimulated control 100;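 note: share of cells whose green reporter signal exceeds an intensity cutoff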
Outline: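 material = TRM-6 human fetal islet cells, insulin promoter–eGFP reporter | input = 1,000 TRM-6 cells seeded per well | benchmarks = stimulated versus unstimulated wells as plate controls | measured by = automated fluorescence imaging of paraformaldehyde-fixed, Hoechst-counterstained cells, green channel | schedule = compound exposure 48 h, 37 °C | reagent = tamoxifen at 0.75 µM added at seeding for reporter induction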

Row | Compound | activation
1 | CC(=O)NC(SC(=S)N(CC(C)C)CC(C)C)C(Cl)(Cl)Cl (stereo unspecified) | active: 294%
